Results reported in ChEMBL document CHEMBL5257112, “Discovery of 4-oxo-4,5-dihydropyrazolo[1,5-a]quinoxaline-7-carboxamide derivatives as PI3Kα inhibitors via virtual screening and docking-based structure optimization” (Bioorg Med Chem, 2023).

Assays:
[1] = species on record: Homo sapiens; experiment: Selectivity ratio of IC50 for PI3Kdelta (unknown origin) over IC50 for PI3Kalpha (unknown origin)
[2] = species on record: Homo sapiens; experiment: Selectivity ratio of IC50 for PI3Kbeta (unknown origin) over IC50 for PI3Kalpha (unknown origin)
[3] = species on record: Homo sapiens; experiment: Selectivity ratio of IC50 for PI3Kgamma (unknown origin) over IC50 for PI3Kalpha (unknown origin)

With CCn1c(=O)c2ccnn2c2cc(N)c(C(=O)NCc3cncnc3)cc21 the Ratio IC50 [1] was 17, the Ratio IC50 [2] was greater than 41 and the Ratio IC50 [3] was 3.5.
